According to publication PMC8569887 (Journal of medicinal chemistry, 2021):

How the values were obtained:
[1] = test system: acetylated α-tubulin (AcTub) levels in QBI293 cells; details: for Class (Table 2): from AcTub and α-Tub at 1 and 10 μM (61: 10 and 30 μM); for Class (Table 1): from AcTub and α-Tub at 1 and 10 μM; for effect on AcTub and α-tubulin levels: 1 and 10 μM
[2] = test system: total α-tubulin (α-Tub) levels in QBI293 cells; details: 10 μM
[3] = test system: acetylated α-tubulin (AcTub) levels in QBI293 cells; assay: cells; details: QBI293, 4 h, read-out: AcTub 10 μM, fold-change over control (DMSO)-treated cells, QBI293 cells, 4 h incubation, 10 μM compound

| SMILES | Class (Table 1) [1] | further results |
| --- | --- | --- |
| CC(C)[C@H](Nc1c(-c2c(F)cc(F)cc2F)c(Cl)nc2ncnn12)C(F)(F)F [Compound 47, (S)-5-Chloro-N-(1,1,1-trifluoro-3-methylbutan-2-yl)-6-(2,4,6-trifluorophenyl)-[1,2,4]triazolo[1,5-a]pyrimidin-7-amine] | – | Class (Table 2) [1]: II (Class II compounds are those that cause >15% decrease in α-tubulin at either 1 or 10 μM compound concentration); reduction (loss) of α-tubulin [2]: ~ 40% |
| C[C@H](Nc1c(-c2c(F)cc(Cl)cc2F)c(Cl)nc2ncnn12)C(F)(F)F [Compound 21, (S)-5-Chloro-6-(4-chloro-2,6-difluorophenyl)-N-(1,1,1-trifluoropropan-2-yl)-[1,2,4]triazolo[1,5-a]pyrimidin-7-amine] | II (Class II compounds are those that cause >15% decrease in α-tubulin at either 1 or 10 μM compound concentration) | reduction (loss) of α-tubulin [2]: 19% |
| C[C@H](Nc1c(-c2c(F)cc(OCCCO)cc2F)c(Cl)nc2ncnn12)C(F)(F)F [Compound 31] | II (Class II compounds are those that cause >15% decrease in α-tubulin at either 1 or 10 μM compound concentration) | fold induction at 10 µM [3]: 1.33 ± 0.15 |
| C[C@H](Nc1c(-c2ccc(F)c(F)c2F)c(Cl)nc2ncnn12)C(F)(F)F [Compound 16, (S)-5-Chloro-6-(2,3,4-trifluorophenyl)-N-(−1,1,1-trifluoropropan-2-yl)-[1,2,4]triazolo[1,5-a]pyrimidin-7-amine] | I (Class I compounds are those producing a concentration-dependent increase in AcTub levels and that do not cause >15% reduction in α-tubulin at either concentration) | – |
| CC(C)(C)CNc1c(-c2c(F)cc(F)cc2F)c(Cl)nc2ncnn12 [Compound 59, 5-Chloro-N-neopentyl-6-(2,4,6-trifluorophenyl)-[1,2,4]triazolo[1,5-a]pyrimidin-7-amine] | – | Class (Table 2) [1]: I (Class I compounds are those producing a concentration-dependent increase in AcTub levels and that do not cause >15% reduction in α-tubulin at either concentration) |
| C[C@H](Nc1c(-c2c(F)cccc2F)c(Cl)nc2ncnn12)C(F)(F)F [Compound 12, (S)-5-Chloro-6-(2,6-difluorophenyl)-N-(1,1,1-trifluoropropan-2-yl)-[1,2,4]triazolo[1,5-a]pyrimidin-7-amine] | I (Class I compounds are those producing a concentration-dependent increase in AcTub levels and that do not cause >15% reduction in α-tubulin at either concentration) | – |
| C[C@H](Nc1c(-c2c(F)cc([N+](=O)[O-])cc2F)c(Cl)nc2ncnn12)C(F)(F)F [Compound 22, (S)-5-Chloro-6-(2,6-difluoro-4-nitrophenyl)-N-(1,1,1-trifluoropropan-2-yl)-[1,2,4]triazolo[1,5-a]pyrimidin-7-amine] | I (Class I compounds are those producing a concentration-dependent increase in AcTub levels and that do not cause >15% reduction in α-tubulin at either concentration) | effect on AcTub and α-tubulin levels [1]: increase AcTub levels without producing a significant reduction in α-tubulin levels |
| C[C@H](Nc1c(-c2ccccc2F)c(Cl)nc2ncnn12)C(F)(F)F [Compound 10, 5-Chloro-6-(2-fluorophenyl)-N-(−1,1,1-trifluoropropan-2-yl)-[1,2,4]triazolo[1,5-a]pyrimidin-7-amine] | I (Class I compounds are those producing a concentration-dependent increase in AcTub levels and that do not cause >15% reduction in α-tubulin at either concentration) | – |
| CC(Cc1c(-c2c(F)cc(F)cc2F)c(Cl)nc2ncnn12)C(F)(F)F (stereo not shown) [Compound 62, 5-Chloro-7-(3,3,3-trifluoro-2-methylpropyl)-6-(2,4,6-trifluorophenyl)-[1,2,4]triazolo[1,5-a]pyrimidine] | – | Class (Table 2) [1]: II (Class II compounds are those that cause >15% decrease in α-tubulin at either 1 or 10 μM compound concentration) |
| C[C@H](Nc1c(-c2c(F)cc(C#N)cc2F)c(Cl)nc2ncnn12)C(F)(F)F [Compound 20, (S)-4-(5-Chloro-7-((1,1,1-trifluoropropan-2-yl)amino)-[1,2,4]triazolo[1,5-a]pyrimidin-6-yl)-3,5-difluorobenzonitrile] | I (Class I compounds are those producing a concentration-dependent increase in AcTub levels and that do not cause >15% reduction in α-tubulin at either concentration) | effect on AcTub and α-tubulin levels [1]: increase AcTub levels without producing a significant reduction in α-tubulin levels |
| C[C@H](Nc1c(-c2ccc(F)cc2)c(Cl)nc2ncnn12)C(F)(F)F [Compound 9, (S)-5-Chloro-6-(4-fluorophenyl)-N-(1,1,1-trifluoropropan-2-yl)-[1,2,4]triazolo[1,5-a]pyrimidin-7-amine] | I (Class I compounds are those producing a concentration-dependent increase in AcTub levels and that do not cause >15% reduction in α-tubulin at either concentration) | – |
